Literature values as cited in patent publication US20230190793A1, “Pharmaceutical Preparation for Use in the Treatment of Systemic Inflammatory Response Syndrome (SIRS)” (priority 2020, published 2023).

chlorous acid
Acid dissociation constant as pKa at 298 K: 2
